The target of the assay is κ-opioid receptor (Homo sapiens (Human), UniProt P41145). Nature of the assay: κ-opioid receptor radioligand dose-displacement binding assay ([3H]-U69,593). The settings on record: read-out: Ki (nM) Opioid Receptor κ; binding affinity, [3H]-U69,593 displacement. On the procedure:
κ-Opioid Receptor Binding Assay Procedures: Membranes from HEK-293 cells, CHO or U-2 OS cells expressing the recombinant human kappa opioid receptor (κ) were prepared by lysing cells in ice cold hypotonic buffer (2.5 mM MgCl2, 50 mM HEPES, pH 7.4) (10 mL/10 cm dish) followed by homogenization with a tissue grinder/Teflon pestle. Membranes were collected by centrifugation at 30,000×g for 15 min at 4° C. and pellets were resuspended in hypotonic buffer to a final concentration of 1-3 mg/mL. Protein concentrations were determined using the BioRad protein assay reagent with bovine serum albumen as standard, Aliquots of κ receptor membranes were stored at […].
Radioligand dose displacement assays used 0.4 nM [^3H]-U69,593 (GE Healthcare, Piscataway, N.J.; 40 Ci/mmole) with 15 μg membrane protein (recombinant κ opioid receptor expressed in HEK 293 cells; in-house prep) in a final volume of 200 μl binding buffer (5% DMSO, 50 mM Trizma base, pH 7.4). Non-specific binding was determined in the presence of 10 μM unlabeled naloxone or U69,593. All reactions were performed in 96-well polypropylene plates for 1 hour at a temperature of about 25° C. […] Fifty μl/well scintillation cocktail (Perkin Elmer, Shelton, Conn.) was added and plates were counted in a Packard Top-Count for 1 min/well.

Chains of the proteins cited; added tags and fusions are not shown.
UniProt P41145, whole entry: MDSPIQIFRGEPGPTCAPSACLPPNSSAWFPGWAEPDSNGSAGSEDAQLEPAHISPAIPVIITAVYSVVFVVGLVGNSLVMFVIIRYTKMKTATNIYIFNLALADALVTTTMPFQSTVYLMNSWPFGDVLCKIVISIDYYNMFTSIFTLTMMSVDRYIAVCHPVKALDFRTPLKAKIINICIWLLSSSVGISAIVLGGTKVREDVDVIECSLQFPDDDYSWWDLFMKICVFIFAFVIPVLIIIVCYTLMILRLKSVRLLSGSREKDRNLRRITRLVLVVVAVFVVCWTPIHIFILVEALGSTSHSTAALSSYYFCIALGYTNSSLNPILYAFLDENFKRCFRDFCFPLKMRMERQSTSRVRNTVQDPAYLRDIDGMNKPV

What is called Ki is the equilibrium dissociation constant of an inhibitor or competing ligand from its target.

Structures are written as SMILES.

Consider `COc1ccc2c(c1)[C@]13CCN(CC4CC4)[C@H](C2)[C@]1(O)Cc1cc(C(=O)O)c(=O)[nH]c1C3`, for which the Ki turned out to be 728 nM.

The values above are taken from US8980906B2, “Pyridonemorphinan analogs and biological activity on opioid receptors” (Purdue Pharma L.P., priority 2012, dated 2015).
